## Permeability data for macrocyclic peptides

Collected by the curators of CycPeptMPDB (Li et al. 2023) from Rand et al. 2012, doi:10.1039/c2md20203d.

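Conditions beyond the assay type are not listed; see the original paper. Other peptides of the study may be missing here. Peptides that the database sets to -10, its floor, are left out.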

RRCK is a low-efflux MDCK cell line. Permeability is given as log10 of P in cm/s; higher (less negative) is more permeable.

{"smiles": "CC(C)C[C@@H]1NC(=O)[C@H](Cc2ccc(O)cc2)N(C)C(=O)[C@H]2CCCN2C(=O)[C@H](CC(C)C)NC(=O)[C@H](Cc2c[nH]c3ccccc23)N(C)C(=O)[C@@H](CC(C)C)N(C)C1=O", "RRCK (log10 cm/s)": "-6.66"}
{"smiles": "CC(C)C[C@@H]1NC(=O)[C@H](Cc2ccc(O)cc2)N(C)C(=O)[C@H]2CCCN2C(=O)[C@H](CC(C)C)NC(=O)[C@H](CCCCN)N(C)C(=O)[C@@H](CC(C)C)N(C)C1=O", "RRCK (log10 cm/s)": "-6.56"}
{"smiles": "CC(C)C[C@@H]1NC(=O)[C@H](Cc2ccc(O)cc2)N(C)C(=O)[C@H]2CCCN2C(=O)[C@H](CC(C)C)NC(=O)[C@H](CC2CCCCC2)N(C)C(=O)[C@@H](CC(C)C)N(C)C1=O", "RRCK (log10 cm/s)": "-6.74"}
{"smiles": "CC(C)C[C@@H]1NC(=O)[C@H](Cc2ccc(O)cc2)N(C)C(=O)[C@H]2CCCN2C(=O)[C@H](CC(C)C)NC(=O)[C@H](CC(=O)N2CCOCC2)N(C)C(=O)[C@@H](CC(C)C)N(C)C1=O", "RRCK (log10 cm/s)": "-6.20"}